# Measurements as given in PubChem BioAssay AID952 (NMMLSC, 2007).
# Chains of the proteins cited; added tags and fusions are not shown.
# UniProt Q92843, whole entry: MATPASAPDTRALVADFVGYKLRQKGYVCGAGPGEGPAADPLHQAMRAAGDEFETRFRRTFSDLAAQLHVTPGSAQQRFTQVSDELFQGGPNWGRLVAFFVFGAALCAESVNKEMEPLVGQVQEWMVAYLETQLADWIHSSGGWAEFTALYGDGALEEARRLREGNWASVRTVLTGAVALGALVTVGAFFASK
# This is a selection; strong and weak results do not stand in their true shares. Activity calls are given as the source filed them. Rule as the data show it: active = inhibition above about 40%.
# Biological target: Bcl-2-like protein 2 (Homo sapiens) (UniProt Q92843)
# Assay: inhibitors of Bim binding to Bcl-W, primary screen, biochemical, multiplexed, bead-based flow cytometry (AID 952);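 also: 0% = bound tracer without compound and 100% = peptide blocker; higher means less fluorescent Bim peptide bound to Bcl-W beads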
# Details: Bim peptide-Bcl-W binding, at 10 µM, active compounds read high
row,SMILES,inhibition
1,CCOP(C)(=S)SCC(=O)NC(C)(CC)C(=O)O (centres undefined),inactive: -4%
2,Cc1ccccc1NP(C)(=O)Nc1ccccc1C,inactive: 0%
3,CP(=O)(Nc1ccc2c(c1)OCCO2)Oc1ccccc1 (centres undefined),inactive: -4%
4,CN(C)CCOC(=O)C(O)(c1ccccc1)C1CCCCC1 (centres undefined),inactive: -1%
5,COc1ccc(NP(C)(=O)Oc2ccccc2OC)cc1 (centres undefined),inactive: -4%
6,COc1ccc(OP(C)(=O)Nc2cccc(Br)c2)cc1 (centres undefined),inactive: -4%
7,O=[N+]([O-])c1cc([N+](=O)[O-])c(NCC2CCS(=O)(=O)C2)c([N+](=O)[O-])c1 (centres undefined),inactive: 0%
8,CCOC(=O)c1ccc(NP(C)(=O)Oc2ccc(F)cc2)cc1 (centres undefined),inactive: -1%
9,COc1ccc(OP(C)(=O)Nc2ccc(SC(F)(F)F)cc2)cc1 (centres undefined),inactive: 0%
10,CP(=O)(Nc1ccccc1)Oc1ccc(F)cc1 (centres undefined),inactive: -2%
11,CCN(CC)CCCOC(=O)C(O)(c1ccccc1)C1CCCCC1 (centres undefined),inactive: -2%
12,CP(=O)(Nc1ccccc1F)Oc1ccccc1 (centres undefined),inactive: -1%
13,CC(C)c1ccc(OP(C)(=O)Nc2ccc(SC(F)(F)F)cc2)cc1 (centres undefined),inactive: -13%
14,O=C(OCCN1CCN(CCOCc2ccccc2)CC1)C(O)(c1ccccc1)c1ccccc1,inactive: 1%
15,COc1ccc(OP(C)(=O)Nc2ccccn2)cc1 (centres undefined),inactive: -3%
16,CN(C)CCOC(=O)C(O)(c1ccccc1)C1CCCC1 (centres undefined),inactive: 2%
17,CP(=O)(Nc1ccccn1)Oc1ccccc1 (centres undefined),inactive: 0%
18,COc1ccccc1OP(C)(=O)Nc1ccc(C)cc1C (centres undefined),inactive: 1%
19,CCc1ccc(OP(C)(=O)O)cc1,inactive: -2%
20,O=[N+]([O-])c1cc([N+](=O)[O-])c(Nc2ccccn2)c([N+](=O)[O-])c1,inactive: -5%
21,Cc1c(NP(C)(=O)Oc2ccc(C(C)C)cc2)c(=O)n(-c2ccccc2)n1C (centres undefined),inactive: -2%
22,COc1ccccc1OP(C)(=O)Nc1ccc(C)c(C)c1 (centres undefined),inactive: 0%
23,COc1ccc(OP(C)(=O)Nc2ccccc2Br)cc1 (centres undefined),inactive: -6%

row,SMILES,inhibition
1,Cc1cc(C)cc(OP(C)(=O)Nc2cccc(C(F)(F)F)c2)c1 (centres undefined),inactive: -2%
2,CP(=O)(OCCOc1ccccc1)OCCOc1ccccc1,inactive: -3%
3,CP(=O)(Nc1ccc(Cl)cc1Cl)Oc1ccccc1 (centres undefined),inactive: 1%
4,Cc1nc2ccc3ccccc3c2o1.O=[N+]([O-])c1cc([N+](=O)[O-])c(O)c([N+](=O)[O-])c1,inactive: 0%
5,CCOC(=O)c1ccc(NP(C)(=O)Oc2ccc(Cl)cc2)cc1 (centres undefined),inactive: -2%
6,CP(=O)(OC12CC3CC(CC(C3)C1)C2)OC12CC3CC(CC(C3)C1)C2,inactive: -3%
7,CP(=O)(Oc1ccccc1)N1CCOC1=O (centres undefined),inactive: -4%
8,CCc1ccc(OP(C)(=O)Nc2cccnc2)cc1 (centres undefined),inactive: 1%
9,CCN(CC)CC(O)COC(=O)C(O)(c1ccccc1)C1CCCCC1 (centres undefined),inactive: 6%
10,COc1ccc(OP(C)(=O)Nc2ccc(Br)cc2)cc1 (centres undefined),inactive: -2%
11,CN(C)C(=O)c1c([N+](=O)[O-])cc([N+](=O)[O-])cc1[N+](=O)[O-],inactive: 1%
12,CC(C)(C)c1ccc(OP(C)(=O)O)cc1,inactive: 1%
13,COc1ccccc1OP(C)(=O)Nc1ccccc1Br (centres undefined),inactive: -1%
14,CP(=O)(Nc1ccc(Cl)cc1)Oc1ccc(F)cc1 (centres undefined),inactive: -3%
15,CP(=O)(NC(=O)Nc1ccccc1)Oc1ccccc1 (centres undefined),inactive: -3%
16,Cc1cc(C)cc(OP(C)(=O)Nc2ccc(SC(F)(F)F)cc2)c1 (centres undefined),inactive: 2%
17,Cc1cccc(C)c1OP(C)(=O)Nc1ccc(SC(F)(F)F)cc1 (centres undefined),inactive: 6%
18,CP(=O)(Oc1ccccc1)OC(c1ccccc1)C(F)(F)F (centres undefined),inactive: 5%
19,CP(=O)(Nc1ccccn1)Oc1ccc(Cl)cc1 (centres undefined),inactive: -1%
20,CCOC(=O)c1ccc(NP(C)(=O)Oc2ccc(OC)cc2)cc1 (centres undefined),inactive: -5%
21,CCOP(C)(=S)SCC(=O)NC(C)C(=O)O (centres undefined),inactive: 1%
22,CP(=O)(Nc1ccccc1Br)Oc1ccccc1 (centres undefined),inactive: -1%
23,COc1ccccc1OP(C)(=O)Nc1ccccc1 (centres undefined),inactive: -2%

row,SMILES,inhibition
1,CP(=S)(Nn1cnnc1)Oc1ccccc1 (centres undefined),inactive: -4%
2,O=[N+]([O-])c1ccc2c(c1)C=Nc1ccccc1O2,inactive: -1%
3,CC(C)(C)c1ccc(OP(C)(=O)Nc2ccc(SC(F)(F)F)cc2)cc1 (centres undefined),inactive: 0%
4,Cc1cccc(C)c1OP(C)(N)=O (centres undefined),inactive: 0%
5,Cc1cc(C)cc(OP(C)(N)=O)c1 (centres undefined),inactive: 1%
6,COc1ccccc1OP(C)(=O)Nc1cc(Cl)ccc1C (centres undefined),inactive: -2%
7,COc1ccc(OP(C)(=O)Nc2cccc(F)c2)cc1 (centres undefined),inactive: -2%
8,COc1ccccc1OP(C)(=O)Nc1ccc(C)cc1 (centres undefined),inactive: 6%
9,Cc1ccc(NP(C)(=O)Oc2ccccc2)c(C)c1 (centres undefined),inactive: 1%
10,CCOC(=O)c1ccc(NP(C)(=O)Oc2ccccc2)cc1 (centres undefined),inactive: -3%
11,CCN(CC)CCCOC(=O)C(O)(c1ccccc1)c1ccccc1,inactive: 0%
12,CCOC(=O)c1ccc(NP(C)(=O)Oc2cc(C)cc(C)c2)cc1 (centres undefined),inactive: 1%
13,Cc1cc(C)cc(OP(C)(=O)Nc2ccc(C)cc2C)c1 (centres undefined),inactive: 3%
14,Cc1ccc(C)c(NP(C)(=O)Oc2ccccc2)c1 (centres undefined),inactive: -6%
15,CP(=O)(Nc1cccc(Br)c1)Oc1ccccc1 (centres undefined),inactive: 0%
16,Cc1cc(C)cc(OP(C)(=O)Nc2ccccn2)c1 (centres undefined),inactive: 1%
17,CC1=NCCc2c1[nH]c1ccccc21.O=[N+]([O-])c1cc([N+](=O)[O-])c(O)c([N+](=O)[O-])c1,inactive: 0%
18,CP(=O)(Nc1ccc(SC(F)(F)F)cc1)Oc1ccccc1 (centres undefined),inactive: -3%
19,CCCOc1ccc(NP(C)(=O)Oc2ccc(Cl)cc2)cc1 (centres undefined),inactive: 0%
20,COc1ccccc1OP(C)(=O)Nc1c(C)cccc1C (centres undefined),inactive: 2%
21,CN1CCCCC1COC(=O)C1(O)c2ccccc2CCc2ccccc21 (centres undefined),inactive: -4%
22,O=[N+]([O-])c1cc([N+](=O)[O-])c(-n2nnc3ccccc32)c([N+](=O)[O-])c1,inactive: 0%
23,Cc1nc2ccc3ccccc3c2s1.O=[N+]([O-])c1cc([N+](=O)[O-])c(O)c([N+](=O)[O-])c1,inactive: 2%
